Measurements from patent publication US6962920B2, “Pyrimidine derivatives and methods of making and using these derivatives” (Duquesne University of the Holy Ghost, priority 1992, dated 2005).
Where two headings read alike, the source gives them in different places. Values belong to the compound of their own block, whether it stands above or below them.

The chains behind the UniProt entries cited, without tags or fusion partners. Where a name states a change or a piece, a line headed by the entry shows the natural chain unless it says otherwise.
UniProt P0A884: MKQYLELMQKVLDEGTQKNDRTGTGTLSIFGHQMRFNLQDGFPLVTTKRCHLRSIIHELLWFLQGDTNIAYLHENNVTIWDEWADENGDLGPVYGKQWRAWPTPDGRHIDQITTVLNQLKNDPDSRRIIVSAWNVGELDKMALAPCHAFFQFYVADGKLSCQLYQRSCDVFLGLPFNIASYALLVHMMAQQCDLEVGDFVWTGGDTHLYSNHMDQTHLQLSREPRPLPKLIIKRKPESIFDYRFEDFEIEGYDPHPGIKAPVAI

What was measured:
[1] = biological target: T1, Pc DHFR (Pneumocystis carinii, UniProt P16184); type: biochemical
T1 sequence (P16184 1-206): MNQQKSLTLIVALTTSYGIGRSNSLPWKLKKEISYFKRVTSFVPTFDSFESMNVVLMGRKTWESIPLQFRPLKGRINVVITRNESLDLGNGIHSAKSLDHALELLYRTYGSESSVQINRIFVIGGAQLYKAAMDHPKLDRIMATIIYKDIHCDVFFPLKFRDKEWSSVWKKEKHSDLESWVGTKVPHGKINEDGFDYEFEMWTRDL

[2] = biological target: T2, RL DHFR (Rattus norvegicus, UniProt Q920D2); assay: Inhibition of DHFR from rat liver; type: biochemical
T2 construct: Toxoplasmosis gondii (Tg) and rat liver (RL); from tissue; host or cells: rat liver
T2 sequence (Q920D2 1-187): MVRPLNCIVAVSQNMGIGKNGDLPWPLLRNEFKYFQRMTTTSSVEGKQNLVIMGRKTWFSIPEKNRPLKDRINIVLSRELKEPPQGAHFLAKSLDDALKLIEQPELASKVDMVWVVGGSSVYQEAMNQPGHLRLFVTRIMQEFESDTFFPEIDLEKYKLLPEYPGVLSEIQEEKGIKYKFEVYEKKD

[3] = biological target: T3, Tg DHFR (Toxoplasma gondii, UniProt Q07422)
T3 sequence (Q07422 1-610): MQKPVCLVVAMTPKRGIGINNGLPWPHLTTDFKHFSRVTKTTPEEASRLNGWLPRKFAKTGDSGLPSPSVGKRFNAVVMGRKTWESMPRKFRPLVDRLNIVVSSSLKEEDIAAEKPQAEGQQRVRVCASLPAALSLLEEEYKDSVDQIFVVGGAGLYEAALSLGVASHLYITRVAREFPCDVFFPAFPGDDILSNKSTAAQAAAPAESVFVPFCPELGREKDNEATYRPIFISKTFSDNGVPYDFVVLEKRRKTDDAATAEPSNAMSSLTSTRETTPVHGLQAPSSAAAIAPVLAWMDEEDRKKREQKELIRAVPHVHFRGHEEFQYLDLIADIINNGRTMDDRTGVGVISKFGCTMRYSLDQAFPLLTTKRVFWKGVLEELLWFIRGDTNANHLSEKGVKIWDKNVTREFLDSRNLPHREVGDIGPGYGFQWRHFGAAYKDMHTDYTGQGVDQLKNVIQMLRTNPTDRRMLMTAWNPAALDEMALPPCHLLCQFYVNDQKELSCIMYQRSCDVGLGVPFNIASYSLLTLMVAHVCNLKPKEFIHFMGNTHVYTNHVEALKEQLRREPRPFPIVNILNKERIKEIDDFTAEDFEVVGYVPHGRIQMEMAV

[4] = biological target: E-coli thymidylate synthase (ecTS) (Escherichia coli, UniProt P0A884); assay: Inhibition of E. coli thymidylate synthase; type: biochemical; settings: Table 13; read-out: TS IC50, E. Coli
[5] = Table 16, read-out: RL DHFR IC50
[6] = Table 25, read-out: Inhibitor Concentrations (IC50) rlDHFR

IC50 ([1]; Table 7, read-out: Pc DHFR IC50): 45.7 µM
SMILES: COc1ccc(OC)c(NCc2cnc3[nH]c(N)nc(N)c2-3)c1 [Compound 4, 2,4-diamino-5-[(2′,5′-dimethoxyanilino)methyl]pyrrolo[2,3-d]pyrimidine]

IC50 [2, 5]: 16.2 µM
IC50 [2, 6]: 16.2 µM
IC50 ([1]; Table 16, read-out: Pc DHFR IC50): 8.1 µM
IC50 ([1]; Table 25, read-out: Inhibitor Concentrations (IC50) pcDHFR): 8.1 µM
SMILES: Nc1nc(N)c2c(CNc3ccc(Oc4ccccc4)cc3)coc2n1 [Compound 166, 2,4-Diamino-5-[(4′-phenoxyanilino)methyl]furo[2,3-d]pyrimidine]

IC50 [2, 5]: 34.3 µM
IC50 [2, 6]: 34.3 µM
SMILES: CN(Cc1coc2nc(N)nc(N)c12)c1cc(Cl)c(Cl)c(Cl)c1 [Compound 172, 2,4-Diamino-5-[(N-methyl-3′,4′,5′-trichloroanilino)methyl]furo[2,3-d]-pyrimidine]
IC50 ([3]; read-out: Inhibitor Concentrations (IC50) tgDHFR, Table 25): 21.5 µM
IC50 ([3]; read-out: Tg DHFR IC50, Table 16): 21.5 µM

SMILES: Cc1nc2ccc(CN(C)c3ccc(C(=O)N[C@@H](CCC(=O)O)C(=O)O)s3)cc2c(=O)[nH]1 [ZD1694, reference compound]
IC50 [4]: 5.3 µM
